{"source": "patent US6878364B2", "about": "“Animal model for flaviviridae infection” (Cornell Research Foundation, Inc., priority 2000, dated 2005)", "origin": "cited, not measured here", "system": "HCV", "settings": "early and prompt treatment of patients acutely infected with HCV; cited from earlier work"}
{"substance": "interferon alpha-2b: an interferon analogue", "values": [{"measurement": "patients in whom chronic infection was prevented", "value": 98, "unit": "%"}]}
